Ab-91 heavy chain CDR variants: yeast mating affinities

Binding partner: SARS-CoV-2 spike HR2 peptide, sequence PDVDLGDISGINAS.

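AAYL51 was designed without a model: most single CDR substitutions and a random sample of double and triple ones. AlphaSeq pools MATa yeast showing the antibodies with MATalpha yeast showing the peptide. The frequency of each diploid, read from paired DNA barcodes, reflects how well the two displayed proteins bind. Each replicate has its own calibration line, from reference interactions of the BCL2 family. There are three technical replicates.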

Parent scFv Ab-91: VL joined to VH by a (GGGGS)3 linker. Changes lie in the heavy chain CDRs alone.
VL: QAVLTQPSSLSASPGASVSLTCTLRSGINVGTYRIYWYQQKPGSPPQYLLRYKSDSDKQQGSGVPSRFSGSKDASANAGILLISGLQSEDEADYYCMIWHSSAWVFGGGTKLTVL
VH: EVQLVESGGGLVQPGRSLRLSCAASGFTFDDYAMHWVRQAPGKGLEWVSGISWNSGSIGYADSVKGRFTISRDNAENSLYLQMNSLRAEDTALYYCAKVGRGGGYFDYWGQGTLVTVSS

Variants are written as CDR1, CDR2 and CDR3 of the heavy chain (limits as in the source). Parent: GFTFDDYAMH, GISWNSGSIGYADSVK, VGRGGGYFDY.
The read-out is the apparent dissociation constant on a log10 scale (nM): the lower, the stronger.
"n.d." means that the variant was in the library but no mating with the target was seen in that replicate; the authors take this as a sign of poor binding, and no number exists.

CDR-H1,CDR-H2,CDR-H3,"log10 Kd, replicates",signal with controls
GFNFDDYAMH,GISWNLGSIGYADSVK,QGRGGGYFDY,4.97 / n.d. / n.d.,5 of 9 (4.92)
GFTFDDYAMH,EISWNSGSGGYADSVK,VGRGGGYFDY,n.d. / n.d. / n.d.,0 of 9
GFTFDDYAMH,GKSVNSGSIGYADSMK,VGRGGGYFDY,n.d. / n.d. / n.d.,1 of 9 (5.65)
GFTFDDYAMH,GISLNMGSIGYADSVK,VGRHGGYFDY,n.d. / n.d. / n.d.,2 of 9 (3.48)
GFTFDPYAMH,GITWNSGSIGYANSVK,VGRGGGYFDY,4.65 / 4.66 / n.d.,3 of 9 (4.29)
GFTFDDYAMW,GISWNSGSIGYADSDK,VGRGGGYFDM,n.d. / n.d. / n.d.,0 of 9
GFTFRDYAMH,GISWNSGSIGYADSCK,VGRGGGYFDY,n.d. / n.d. / n.d.,0 of 9
GFTFDDHAMH,GISWNYGSIGYADSVK,VGRLGGYFDY,n.d. / n.d. / n.d.,0 of 9
GFTFDDYNMH,GISWNSGSIGYADWVC,VGRGGGYFDY,6.05 / 5.44 / 4.73,2 of 9 (4.35)
GFTFDDYAMH,GISWQSGSIGYAHSVK,VGRMGGYFDY,n.d. / 5.09 / n.d.,3 of 9 (4.07)
GFTFDDYAMH,GISWNSGSIGYHDSVK,WGRGWGYFDY,n.d. / n.d. / n.d.,2 of 9 (5.09)
GFTFDEYAPH,GISWNSGSIGYADSHK,VGRGGGYFDY,n.d. / 4.35 / n.d.,2 of 9 (4.44)
GFTFDIYAMR,GISWNSGSIGQADSVK,VGRGGGYFDY,n.d. / n.d. / n.d.,0 of 9
GFAFDDYAMH,GISWNEGSIGYADSVK,VGRGGMYFDY,2.06 / 1.72 / 1.98,0 of 9
GFVFDDYAMH,GISWNSGSIGYADSVK,VGRGTGYFDY,n.d. / n.d. / n.d.,4 of 9 (4.03)
WFTFDDYAMH,GIEWNSGSIGYAHSVK,VGRGGGYFDY,4.79 / n.d. / n.d.,1 of 9 (4.02)
GFTFDDYAMK,GISWNSGSIGYADSVK,VGRGGDYGDY,5.26 / n.d. / 3.06,1 of 9 (3.93)
GFTFDDYAMH,GISWNSGSIGYADSVK,VPRCGGYFDY,4.32 / 5.30 / 5.14,4 of 9 (4.71)
GFTFDDYAMH,GISWGSGSIGYADQVK,VGRGGGYFDY,2.58 / 2.15 / 2.94,1 of 9 (4.23)
GRTFDDYEMH,GISWNSGSIGYADSVK,VGHGGGYFDY,n.d. / 3.90 / 4.33,2 of 9 (3.63)
GFTFDDYAMH,GIAWNAGSIGYADSVK,VGRGNGYFDY,3.05 / 2.48 / 2.19,2 of 9 (4.09)
GFYFDDYAMH,GISNNSGSIGYADSVV,VGRGGGYFDY,n.d. / n.d. / 3.88,0 of 9
QFTFDDYAMH,GISWNSGSIGYADSVL,VGRGAGYFDY,4.58 / n.d. / n.d.,4 of 9 (4.94)
GFTFDDYMMH,GISWNSGSIGYADSVK,VGRGGGYFDY,n.d. / 4.90 / n.d.,1 of 9 (3.82)
GCTFDDYAMH,GISWKSGSIGYADSQK,VGRGGGYFDY,n.d. / 3.85 / n.d.,2 of 9 (4.24)
GFTFDDYAMH,GISWNSGSIGYALSVK,VFRGHGYFDY,n.d. / n.d. / n.d.,0 of 9
GKTFDDYAMH,GISWNSGSIGYADSVK,VGWGGGSFDY,4.79 / n.d. / n.d.,1 of 9 (3.76)
GFTFDDYAMH,GISTNSCSKGYADSVK,VGRGGGYFDY,1.77 / 1.77 / 1.38,2 of 9 (4.45)
GFTADDYAMH,GISRNSGSDGYADSVK,VGRGGGYFDY,4.65 / n.d. / n.d.,2 of 9 (4.13)
GRTFDDYAMH,GISWNSWSIGYADSVK,VGRGGGYFDY,n.d. / n.d. / n.d.,1 of 9 (4.49)
GFTFDDYAMH,GISWNSISIGYHDSVK,VGRGGGYFDY,2.29 / 3.51 / 2.14,1 of 9 (4.18)
GSTFDDYGMH,GISWNSGSIGYPDSVK,VGRGGGYFDY,n.d. / 6.07 / 4.67,4 of 9 (4.04)
GFTFDDYAMH,GISWNSGSIGYADNVK,VGRGGGYFDY,0.86 / 0.84 / 0.44,6 of 9 (4.43)
GFTFDDYAMH,GASWNCGSIGYADSVK,VGRGGGYEDY,n.d. / n.d. / n.d.,2 of 9 (4.34)
GATFDDYAMH,GISWMSGSIGYAGSVK,VGRGGGYFDY,n.d. / n.d. / n.d.,0 of 9
GFTFDDYNMH,GISWNSGSIGYADFVK,VGRGGGYFDY,n.d. / n.d. / n.d.,0 of 9
GFTFDDLAMH,GISWNSGSIGYAYEVK,VGRGGGYFDY,n.d. / n.d. / n.d.,2 of 9 (4.09)
GFTGDDYHMA,GISWNSGSIGYADSVK,VGRGGGYFDY,n.d. / n.d. / 3.95,1 of 9 (4.78)
NFTFDDYAQH,GISWNSGSIGYADSVI,VGRGGGYFDY,2.49 / 2.95 / 3.05,5 of 9 (4.06)
GFTFDDYAMH,GISVNSGSIGYADIVT,VGRGGGYFDY,1.86 / 1.52 / 1.26,2 of 9 (3.72)
GFTVDDYAMH,GISWNSGSIGYADQVK,VGRGGGYFPY,5.59 / 6.80 / 5.22,3 of 9 (5.74)
GFTFEDYAMH,GISWNSGSIGYADSVK,VGRQGYYFDY,5.30 / 5.43 / n.d.,5 of 9 (4.88)
GKTFDDYAEH,GISWNSGSIGYAWSVK,VGRGGGYFDY,n.d. / n.d. / n.d.,0 of 9
GFTFDDYAMH,GISWNSGSIGYADSVH,VGRGQGYFDI,n.d. / n.d. / n.d.,1 of 9 (4.09)
GFKFDDYAMH,GISWNSGSIGYADSVH,VGRGGGFFDY,0.81 / 0.82 / 0.26,1 of 9 (3.78)
GFTFDDYAMH,GISWNSGSIGYADSVK,VGWGGGYFDW,1.17 / 0.89 / 0.69,0 of 9
GHTFDDYAMH,GISWNSGSIGYADSVK,YGRGGGYFSY,n.d. / n.d. / n.d.,0 of 9
GFRFDDYAMH,GQSWNSGSIGYADSVK,VGRGGGYFDY,4.93 / 5.83 / 5.16,8 of 9 (5.39)
GFTFDDYAMH,DISWNSGSIGYTDSVA,VGRGGGYFDY,n.d. / n.d. / n.d.,0 of 9
GFTFDDYAMH,GISMNWGSMGYADSVK,VGRGGGYFDY,3.65 / 4.04 / 4.78,5 of 9 (3.97)

6 of these entries, quoted again:

CDR-H1	CDR-H2	CDR-H3	log10 Kd, replicates	signal with controls
GFTFDDYAMH	GISWQSGSIGYAHSVK	VGRMGGYFDY	n.d. / 5.09 / n.d.	3 of 9 (4.07)
GFTFDDYAMH	GISWNSGSIGYHDSVK	WGRGWGYFDY	n.d. / n.d. / n.d.	2 of 9 (5.09)
GFVFDDYAMH	GISWNSGSIGYADSVK	VGRGTGYFDY	n.d. / n.d. / n.d.	4 of 9 (4.03)
GFTFDDYAMH	GISWNSGSIGYADSVK	VPRCGGYFDY	4.32 / 5.30 / 5.14	4 of 9 (4.71)
GFTGDDYHMA	GISWNSGSIGYADSVK	VGRGGGYFDY	n.d. / n.d. / 3.95	1 of 9 (4.78)
GFTFDEYAPH	GISWNSGSIGYADSHK	VGRGGGYFDY	n.d. / 4.35 / n.d.	2 of 9 (4.44)

Empty control strains, which show no peptide, gave a signal in 21% of pairings with library AAYL51; the median was 4.54 and 95% of these signals were weaker than 3.26. No background was subtracted. The control count says in how many pairings with the empty strains this scFv gave a signal, with their mean in brackets.
In this assay the parent's reference entry averaged 1.86; its copy inside this library read 0.88.

Values reported by Engelhart et al. 2022, doi:10.1038/s41597-022-01779-4 (FLAb copy).